ChEMBL document CHEMBL1131112, “Matrix metalloproteinase inhibitors: a structure-activity study” (J Med Chem, 1998)

Protein sequences, listed by entry. Tags and fused reporters are not part of them. Lines headed by an entry give the natural chain unless they say otherwise; changes in a name come on top.
UniProt P22894: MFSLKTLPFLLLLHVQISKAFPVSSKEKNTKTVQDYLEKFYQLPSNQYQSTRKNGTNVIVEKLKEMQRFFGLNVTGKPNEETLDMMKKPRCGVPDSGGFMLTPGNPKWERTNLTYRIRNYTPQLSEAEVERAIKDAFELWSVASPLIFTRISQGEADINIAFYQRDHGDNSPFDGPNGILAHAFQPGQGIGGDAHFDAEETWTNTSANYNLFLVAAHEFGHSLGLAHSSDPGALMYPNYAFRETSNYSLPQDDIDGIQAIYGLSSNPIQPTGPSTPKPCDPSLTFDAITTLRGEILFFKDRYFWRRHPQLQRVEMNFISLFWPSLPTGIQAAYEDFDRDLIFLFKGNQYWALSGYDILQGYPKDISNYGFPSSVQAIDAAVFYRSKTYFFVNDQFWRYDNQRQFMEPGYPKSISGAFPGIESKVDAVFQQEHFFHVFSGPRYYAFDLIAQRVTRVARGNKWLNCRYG

Target: Neutrophil collagenase (Homo sapiens, UniProt P22894)

Ki [µM] | SMILES
0.073 | CC(C)C[C@H](CC(=O)NO)C(=O)N[C@@H](Cc1c[nH]c2ccccc12)C(=O)N[C@H]1c2ccccc2C[C@H]1O
0.0062 | CC(C)C[C@H](CC(=O)NO)C(=O)N[C@@H](Cc1c[nH]c2ccccc12)C(=O)N[C@@H]1c2ccccc2C[C@@H]1O
